Test results from article PMC9007139 (Journal of medicinal chemistry, 2020).

Settings: earlier model study (unpublished)

In the case of `CNC(=O)c1cn(C[C@H](F)CCc2ccc(NC(=O)Cc3cc(OC4CC(F)(F)C4)cc(C)n3)nn2)nn1` [Compound 27, (R)-1-(4-(6-(2-(4-(3,3-difluorocyclobutoxy)-6-methylpyridin-2-yl)acetamido)pyridazin-3-yl)-2-fluorobutyl)-N-methyl-1H-1,2,3-triazole-4-carboxamide], the maximally tolerated dose is reported as 100 mg/kg BID.
